The entries are a selection whose mix differs from that of the whole data set. Some results for these compounds are left out of this collection, so the calls shown say nothing about other tests. The source made the active and inactive calls.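 Rule for the calls: active = activation factor of at least 2 for MT1-MMP transcription at 10 µM; inactive = the rest.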

This test in a line: MT1-MMP promoter reporter activation – cell-based, luciferase luminescence, primary screen (AID 750). To be noted: HT1080 MT1-MMP promoter luciferase reporter, overnight, at 10 µM, active compounds read high. Background: A reporter such as luciferase makes a cellular process visible.
For `CN(C)c1cccc(C(=O)NCC2(N(C)C)CCCCC2)c1`, the activation factor is inactive: 1.1. As to `O=C(OC1CN2CCC1CC2)C(CO)(c1ccccc1)c1ccccc1` (configuration not stated), the activation factor is inactive: 1.2.
